Values of other authors as cited in patent US20040126343A1, “Nail drug delivery” (priority 2002, published 2004).

Conditions: single topical application on the human knee area; until the dosed site was washed at 24 h postdosing; cited from earlier work

SMILES: O=C(O)Cc1ccccc1Nc1c(Cl)cccc1Cl [diclofenac]
- Delivery from the carrier through the skin and into the urine: continuous delivery
